According to ChEMBL document CHEMBL1142706, “Synthesis and evaluation of (pyridylmethylene)tetrahydronaphthalenes/-indanes and structurally modified derivatives: potent and selective inhibitors of aldosterone synthase” (J Med Chem, 2005):

Organism: Homo sapiens
Assay: In vitro IC50 ratio against human CYP11B1 to that of human CYP11B2
Procedure, shortened: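 IC50 ratio from V79 MZh hamster fibroblasts expressing human CYP11B1 or CYP11B2, each incubated with [4-14C]-11-deoxycorticosterone (100 nM) and inhibitor at no fewer than three concentrations; steroids extracted into ethyl acetate and quantified by HPTLC with phosphoimaging.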

Compound	Selectivity ratio
Clc1ccc2c(c1)CC/C2=C/c1ccncc1	3.7
Clc1ccc2c(c1)CC/C2=C\c1ccncc1	0.2
